The assay deals with T1, inducible NO-synthase (NOS 2) (Homo sapiens, UniProt P35228).
T1 construct: positive control (induction of the enzyme); endogenous in cells
The assay is described as follows: Activity on inducible NO-synthase: decrease in nitrate and nitrite concentration after stimulation of NO-synthase 2 (test of Heck et al.). Type of assay: cell-based. The conditions noted are these: control compound at 200 μM, nitrites and nitrates measured. How it is done: The activity of the extracts on inducible NO-synthase was evaluated in the test described by Heck et al. (J.B.C., Vol. 267, No. 30, 21277-21280, Oct. 25, 1992). […] N^G-monomethyl-L-arginine (L form) at 200 μM; • C: control for specificity of inhibition: N^G-monomethyl-L-arginine (D form) at 200 μM. In order to determine the activity of the product to be tested, the amount of stable NO reaction products (nitrites and nitrates) is measured using the nitric calorimetric assay kit sold by the company Boehringer under the reference 1756.28.

As for `CNC(=N)NCCC[C@H](N)C(=O)O` [C, N^G-monomethyl-L-arginine], the % inhibition (usually the relative decrease from the control value, in per cent) came to 0%.

Turning to `CNC(=N)NCCC[C@H](N)C(=O)O` [B, N^G-monomethyl-L-arginine], the “% inhibition” value is on record as 100%.

These data come from patent US20050281900A1, “Plant extract of the species Vitis vinifera as no-synthase inhibitor and uses” (L'OREAL, priority 2000, published 2005).
